# Antibody variant affinities, Ab-14 heavy chain, assay 1

Values reported by Engelhart et al. 2022, doi:10.1038/s41597-022-01779-4 (FLAb copy).

All variants were tested on one target, the spike HR2 peptide PDVDLGDISGINAS (SARS-CoV-2).

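Variants in AAYL49 differ from the parent at up to three CDR positions; double and triple changes were sampled at random. The assay is AlphaSeq: two haploid yeast populations carry antibody and antigen on their surface. Binding brings cells together so that they mate, and sequencing counts the barcode pairs among the diploids. Scores were corrected for input abundance and mapped to Kd with protein pairs of known affinity run in the same pool. There are three technical replicates.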

Parent: Ab-14, a human scFv built as VH, three GGGGS repeats, VL. Only the CDRs of the heavy chain vary.
VH: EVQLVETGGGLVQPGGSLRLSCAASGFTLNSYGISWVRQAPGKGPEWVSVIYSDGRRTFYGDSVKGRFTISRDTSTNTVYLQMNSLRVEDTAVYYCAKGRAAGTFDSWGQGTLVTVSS
VL: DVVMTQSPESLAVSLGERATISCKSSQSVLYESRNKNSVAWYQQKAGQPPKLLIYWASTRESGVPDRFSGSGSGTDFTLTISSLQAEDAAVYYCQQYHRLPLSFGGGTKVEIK

Each variant is given by its three heavy chain CDRs, as the data file delimits them; those of the parent are GFTLNSYGIS, VIYSDGRRTFYGDSVK, GRAAGTFDS. The read-out is the apparent dissociation constant on a log10 scale (nM): the lower, the stronger. The mean shown is taken over the replicates in which the pair was detected. Where no diploid with the target was found in any replicate, the entry reads "nd": below detection, most likely a poor binder, though not proof of it. In this assay the parent's reference entry averaged 0.65; its copy inside this library read 4.11 (one replicate of three).

CDR-H1	CDR-H2	CDR-H3	log10 Kd (nM), mean	seen in	control signals
GTTLNSYTIS	VIYSDQRRTFYGDSVK	GRAAGTFDS	3.88	1 of 3	2 of 9
GFTLNSYGIS	VIMSDGRRTFYGDSVK	WRAAGTFRS	nd	0 of 3	4 of 9
QFTLNSYGIS	VILSDGRRTFYGDSVK	GRAAGTFCS	nd	0 of 3	0 of 9
GFTLNSYGIF	VVYSDGKRTFYGDSVK	GRAAGTFDS	1.84	1 of 3	0 of 9
GFTLNSYGIS	VIYSDGRREFYHDSVK	GRAARTFDS	2.27	3 of 3	0 of 9
GFTLNSYCIS	VIYSDGRRTFPGDSVK	GRAAGDFDS	4.74	1 of 3	1 of 9
GFTLNSYGES	VIYLDGRRTFYGDSVK	GRAAGTFDY	nd	0 of 3	0 of 9
GFTLNSYGIS	VCYSDVRRTFYGDLVK	GRAAGTFDS	nd	0 of 3	0 of 9
GFTLNSYGIS	VIYSDGRRTFYGDSAK	KRAAGLFDS	4.93	1 of 3	0 of 9
GFTLNSYGIS	VIYSDGRRTFYGDSVQ	GLAAGTFFS	nd	0 of 3	0 of 9
GFTANSYGIS	VIYSDGRRTFYGDSVK	ARAAGAFDS	2.72	1 of 3	0 of 9
GFALNSYGIS	VIYSDGRRTHYGDSVK	GRAAGTFDA	1.48	3 of 3	2 of 9
GFTLNSYGDS	VIYSDCRRTFYGDSVK	GRAAHTFDS	nd	0 of 3	1 of 9
GFTLNSYGIS	VIYSDGRRFDTGDSVK	GRAAGTFDS	nd	0 of 3	0 of 9
GFTLNSYGIK	VIYSDGRRGFYGDSVK	GRAAGTFDS	3.51	1 of 3	2 of 9
GFALNSNGIS	VIYSDGRRTFYGDSNK	GRAAGTFDS	nd	0 of 3	2 of 9
GFTLNSYGIN	VIYSDGRRTFSGKSVK	GRAAGTFDS	5.03	1 of 3	1 of 9
GFTLNSYGIR	VIYSDGRRTFYGDSVK	GRAAGTSDS	nd	0 of 3	1 of 9
GKTLNSYGIS	VIYSDGDRHFYGDSVK	GRAAGTFDS	4.03	3 of 3	5 of 9
GFTLRSYGIS	VIYSDGRQTFYGDSVK	GRAAGTYDS	3.59	1 of 3	0 of 9
GFTSNSYGRS	VIYSDGRRTFYGDSVK	GRAAGTFLS	3.88	1 of 3	0 of 9
GFTLWSYGIQ	VIYSDGARTFYGDSVK	GRAAGTFDS	nd	0 of 3	1 of 9
GFTLNSYGIS	NIYSDGRRTFKGDSVK	GRAAGVFDS	4.26	1 of 3	1 of 9
GFTLNSYGIS	YIYSDGRRTFYGDSVK	GRAAGARDS	nd	0 of 3	2 of 9

The remaining entries, values ahead:

log10 Kd (nM), mean	seen in	control signals	CDR-H1	CDR-H2	CDR-H3
1.90	3 of 3	0 of 9	GFTLNSYGIS	VIYSDGRRTFYGDSVS	GRAHGTFSS
4.48	1 of 3	0 of 9	GFTLNSYGIS	VIYSDGRSTEYGDSVY	GRAAGTFDS
4.41	3 of 3	2 of 9	YFTLNSYGIS	VIYPDGRRTFYGDSVK	GRAAGTFDS
nd	0 of 3	2 of 9	GFTLCSYGIS	VIYSDGRKTFYGDSVK	GRAAGTFDS
2.93	1 of 3	0 of 9	GFTLNSYGIN	VITSDGRRTFYGDSVK	GRAHGTFDS
nd	0 of 3	0 of 9	GFTLNSYGIS	VIYSAGRRTFYGDSNK	GRAAGNFDS
4.96	1 of 3	1 of 9	GFTLNSYGIS	VICSDGRRTDYGDSVK	GRAAGTFDS
nd	0 of 3	0 of 9	GFTLNSYGIS	VIYSDGRRTFYGDIVK	GRDAGTFPS
2.18	3 of 3	1 of 9	GPTLNVYGIS	VIYSDGRRTFYGDSVK	ERAAGTFDS
nd	0 of 3	0 of 9	GFTLNSYGIS	VIYSDGRRGFYGVSVK	GRAAGTFIS
2.44	1 of 3	0 of 9	GFTLNSDGIS	SIYSDGRRTFYGDSVK	GRAAGTQDS
4.95	1 of 3	1 of 9	IFTLNSYGIS	VIYSDGRRTFYTDSVK	GRAAGTQDS
nd	0 of 3	1 of 9	IFTLNSYGIS	VIYSDGRRTFYGDSMK	GRAAGTFDD
5.30	3 of 3	9 of 9	GFTLNSCGIS	VITSDGRRTFYGDYVK	GRAAGTFDS
1.01	3 of 3	1 of 9	GFTLNSYGIS	VIYSDGRRAFYGDSVK	GRWAGTFLS
1.98	3 of 3	0 of 9	GFTLWSFGIS	VIYSDGRRTFYKDSVK	GRAAGTFDS
nd	0 of 3	0 of 9	GFTLSSYGIS	VIYSDGRRTFYGDSVK	IRAAGTFDY
nd	0 of 3	1 of 9	GFTLNSRGIS	VIYSDGNRTFYGPSVK	GRAAGTFDS
3.73	1 of 3	1 of 9	GFTLNSYGIS	VIESDGRRTFYGDKVK	GRAVGTFDS
3.85	1 of 3	0 of 9	GFTLNSYGIT	VIYSDGRRTFYGDSVK	GRAAGTSDP
3.35	2 of 3	2 of 9	GFTLNSYGIS	VIYSDGRRTFYGRSVK	GRAGGTFDI
3.33	1 of 3	2 of 9	GFTLRSYGIS	VIYSDGYRTFYGDSVK	GRAQGTFDS
5.84	2 of 3	6 of 9	EFTLNSNGIS	VIYSDGRRTFYGDSVK	GRAANTFDS
1.73	3 of 3	4 of 9	GFTLNRYGIS	VIYSDGRRTFYGDSVK	GRDAGTFWS

A selection of 3 entries from above:

CDR-H1	CDR-H2	CDR-H3	log10 Kd (nM), mean	seen in	control signals
GFTLNSYGIS	VIMSDGRRTFYGDSVK	WRAAGTFRS	nd	0 of 3	4 of 9
GFTLWSYGIQ	VIYSDGARTFYGDSVK	GRAAGTFDS	nd	0 of 3	1 of 9
GFTLSSYGIS	VIYSDGRRTFYGDSVK	IRAAGTFDY	nd	0 of 3	0 of 9

Background: pairings of library AAYL49 with three empty control strains gave a value in 15% of cases (median 4.06, 5th percentile 2.83). Values in that range, when seen in few replicates, are hard to tell from nonspecific mating. For each scFv, signals with the empty controls are counted beside the result.